## Antibody variant affinities, Ab-14 heavy chain, assay 1

Source: Engelhart et al. 2022 (doi:10.1038/s41597-022-01779-4), MIT Lincoln Laboratory and A-Alpha Bio; data file from the FLAb repository.

The target is the same throughout: PDVDLGDISGINAS, from the HR2 region of SARS-CoV-2 spike.

Each scFv is VH, a 15-residue (Gly4Ser)3 linker, VL, as in the parent Ab-14, and differs from it in the CDRs of the heavy chain only.
VH: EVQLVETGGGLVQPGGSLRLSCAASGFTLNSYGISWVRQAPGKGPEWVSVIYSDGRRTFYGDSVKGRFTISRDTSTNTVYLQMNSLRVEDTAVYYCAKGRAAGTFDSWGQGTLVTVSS
VL: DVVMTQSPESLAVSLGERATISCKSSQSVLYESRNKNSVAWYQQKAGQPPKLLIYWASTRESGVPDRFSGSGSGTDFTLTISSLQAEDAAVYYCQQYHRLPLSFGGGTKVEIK

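Phage display of a naive human antibody library on the peptide gave the parent. The library (AAYL49) carries one to three amino acid substitutions per variant, with no insertions or deletions. AlphaSeq pools MATa yeast showing the antibodies with MATalpha yeast showing the peptide. Pairs that bind mate more often; barcode pairs of the diploids are counted by sequencing. Read counts were normalised to the haploid input and turned into Kd by a linear fit to BCL2-family pairs of known affinity, for each replicate. Each pool was mated in three replicate cultures.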

Changes read parent residue, position, new residue, counted from the first residue of the VH shown. Every variant below is changed at A101 of the VH (sequential numbering). Values are log10 of the apparent Kd in nM; lower means stronger binding. A mean of the replicates is given; it leaves out those without a signal. An entry "nd" has no value in the source: the pair was not observed among the diploids in any replicate. This suggests poor binding but is not conclusive. For reference, the parent read 0.65 as the reference entry and 4.11 (one replicate of three) as a member of this library. Three control strains display no target. For library AAYL49, 15% of the pairings with them gave a signal, with a median of 4.06 and one signal in twenty below 2.83, so weak values seen in few replicates may be background.

With R100F/A101G/S107G the result was 2.37 (3 of 3 replicates).
With V50Y/T58E/A101H the result was nd (0 of 3 replicates).
With D62T/A101Q/A102H the result was 4.16 (1 of 3 replicates).
With A101R/A102P the result was 2.56 (3 of 3 replicates).
With S31W/F59W/A101V the result was 3.75 (3 of 3 replicates).
With R57F/K65R/A101W the result was 3.23 (1 of 3 replicates).
With S63H/A101T the result was 0.93 (3 of 3 replicates).
With T28K/Y60L/A101H the result was 2.78 (3 of 3 replicates).
With T28P/G55P/A101T the result was 2.51 (3 of 3 replicates).
With F27M/R57D/A101P the result was 4.97 (1 of 3 replicates).
With A101K/F105S the result was 2.19 (3 of 3 replicates).
With D54P/V64L/A101E the result was nd (0 of 3 replicates).
With Y52C/A101Y/T104R the result was nd (0 of 3 replicates).
With F59N/S63V/A101K the result was nd (0 of 3 replicates).
With G33Y/D62K/A101Y the result was 4.26 (1 of 3 replicates).
With L29G/A101R the result was 4.38 (3 of 3 replicates).
With G33I/S53L/A101G the result was nd (0 of 3 replicates).
With S31M/A101K/G103T the result was nd (0 of 3 replicates).
With L29G/S63W/A101T the result was nd (0 of 3 replicates).
With D54Y/S63F/A101G the result was nd (0 of 3 replicates).
With I34E/G99D/A101G the result was 5.21 (2 of 3 replicates).
With S35G/A101G/G103R the result was nd (0 of 3 replicates).
With I51H/A101P/T104Q the result was nd (0 of 3 replicates).
With Y52F/R56T/A101L the result was 1.53 (3 of 3 replicates).
With N30P/G33Y/A101M the result was 5.62 (1 of 3 replicates).
With D62C/A101L/F105T the result was 3.09 (1 of 3 replicates).
With G26D/Y32V/A101R the result was 4.12 (1 of 3 replicates).
With I34H/K65M/A101M the result was 5.35 (1 of 3 replicates).
With K65R/G99A/A101M the result was nd (0 of 3 replicates).
With G61D/A101W/G103H the result was 3.34 (1 of 3 replicates).
With Y32L/G33K/A101S the result was 3.90 (1 of 3 replicates).
With Y60H/A101W/A102E the result was nd (0 of 3 replicates).
With F27V/A101K/T104S the result was 1.66 (3 of 3 replicates).
With D54P/A101Q the result was nd (0 of 3 replicates).
With I51Q/D54H/A101S the result was 4.34 (2 of 3 replicates).
With Y60F/A101K/T104P the result was 3.84 (1 of 3 replicates).
With N30Q/A101R/F105A the result was 2.83 (3 of 3 replicates).
With T28Y/V50S/A101L the result was 4.16 (1 of 3 replicates).
With F59I/A101F/A102W the result was nd (0 of 3 replicates).
With Y32M/G99H/A101Q the result was 3.82 (1 of 3 replicates).
With G99C/A101S/S107I the result was 1.55 (3 of 3 replicates).
With D54W/A101C/T104P the result was 4.15 (2 of 3 replicates).
With G26W/T58K/A101C the result was 1.72 (2 of 3 replicates).
With S31K/A101N the result was 1.40 (3 of 3 replicates).
With S35P/Y52R/A101C the result was nd (0 of 3 replicates).
With S35E/R57Y/A101E the result was nd (0 of 3 replicates).
With Y60K/A101P/F105L the result was 5.90 (2 of 3 replicates).
With A101I/D106S the result was 1.07 (3 of 3 replicates).

The closing 7 entries, repeated:

The variant D54W/A101C/T104P showed 4.15 (2 of 3 replicates).
The variant G26W/T58K/A101C showed 1.72 (2 of 3 replicates).
The variant S31K/A101N showed 1.40 (3 of 3 replicates).
The variant S35P/Y52R/A101C showed nd (0 of 3 replicates).
The variant S35E/R57Y/A101E showed nd (0 of 3 replicates).
The variant Y60K/A101P/F105L showed 5.90 (2 of 3 replicates).
The variant A101I/D106S showed 1.07 (3 of 3 replicates).